{
  "sequences": {"note": "By UniProt entry, the sequences of proteins in these tests, tags left out. Where a name states a change or a piece, a line headed by the entry shows the natural chain unless it says otherwise.", "UniProt P51570": "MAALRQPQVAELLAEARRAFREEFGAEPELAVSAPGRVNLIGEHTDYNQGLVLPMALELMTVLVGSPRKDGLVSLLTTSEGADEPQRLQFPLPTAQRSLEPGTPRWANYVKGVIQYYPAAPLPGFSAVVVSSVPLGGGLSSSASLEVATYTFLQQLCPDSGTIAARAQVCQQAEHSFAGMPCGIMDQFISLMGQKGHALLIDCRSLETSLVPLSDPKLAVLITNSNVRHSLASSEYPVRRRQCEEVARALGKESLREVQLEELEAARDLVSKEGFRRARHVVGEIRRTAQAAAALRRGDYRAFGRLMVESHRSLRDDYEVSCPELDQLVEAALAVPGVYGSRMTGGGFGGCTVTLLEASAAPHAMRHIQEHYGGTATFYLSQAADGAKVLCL"},
  "source": "patent US20230158025A1",
  "about": "(UNIVERSITY OF UTAH RESEARCH FOUNDATION, priority 2020, published 2023)",
  "molecular_target": "recombinant human GALK1 (Homo sapiens, UniProt P51570)",
  "assay": "hGALK1 biochemical activity assay (Kinase-Glo Plus, ATP depletion)",
  "settings": "bracketed figure in the cell, e.g. (−1.2), is not defined in the text shown, read-out: hGALK",
  "method": "In vitro hGALK1 activity assays were performed as previously described. Liu et al., Bioorg. Med. Chem. Lett. 25(3): 721-727 (2015), which is incorporated by reference herein for the specific teachings thereof. The biochemical assay was performed by coupling the activity of recombinant human or mouse GALK1 to the Kinase-Glo Plus luminescent ATP detection kit, using ATP depletion as a measure of GALK1 turnover. Specifically, three μL/well of ATP substrate solution (35 μM ATP) in assay buffer (20 mM HEPES pH 8.0, 5 mM MgCl2, 60 mM NaCl, 1 mM DTT, 0.01% BSA final concentration) was dispensed into 1536-well assay plates (Greiner, white solid-bottom medium-binding plates). Aliquots of compound (23 nL solubilized in DMSO) were transferred to the assay plates using a Kalypsys 1536-well pintool such that 11 concentrations with 1/3 dilutions ranging from 57.4 μM-0.97 nM are tested. One μL/well of GALK-galactose solution (5 nM GALK1, 100 μM galactose) in assay buffer was then added, yielding a final reaction volume of 4 μL/well. Following a 1-hour room temperature incubation, 4 μL of Kinase-Glo Plus detection reagent was added to provide an ATP-dependent luminescent readout (final assay volume: 8 μL/well). Luminescence was detected using a ViewLux plate reader (PerkinElmer) after a 10-minute incubation, using a 1 second exposure time and 2× binning.",
  "note": "pIC50: −log10 of the molar value.",
  "data": [
    {"smiles": "CN(C)C(=O)C1CC(=O)C2=C(C1)NC(Nc1nc3ccccc3o1)=NC2c1ccccc1Cl", "note": "(stereo not shown) [Compound 277, 2-(benzo[d]oxazol-2-ylamino)-4-(2-chlorophenyl)-N,N-dimethyl-5-oxo-1,4,5,6,7,8-hexahydroquinazoline-7-carboxamide]", "values": [
      {"measurement": "pIC50", "result": 5.46}
    ]}
  ]
}
